Key:
A549 cells = assay: BH3-M6 and CEP-1612 alone or in combination in A549 cells (MTT, TUNEL, PARP cleavage); settings: tested form: diammonium salt (as drawn, CO2NH4)
Description: FIG. 7 is a series of images illustrating BH3-M6 sensitizes A549 cells to the proteasome inhibitor CEP-1612 to induce apoptosis. A549 cells were treated with the indicated concentrations of either drug alone or in combination and then processed for various assays as described in EXPERIMENTAL PROCEDURES. (A) Cell viability as measured by MTT assay after 72 h of treatment, error bars indicate standard deviations of triplicates. (B) apoptosis as determined by TUNEL assay after 48 h of treatment. (C) PARP cleavage after 24 hours of drug treatment.
Release of cytochrome c from isolated mitochondria was measured as described by Takahashi et al. (Takahashi, Y., Karbowski, M., Yamaguchi, H., Kazi, A., Wu, J., Sebti, S. M., Youle, R. J., and Wang, H. G. (2005) Mol Cell Biol 25, 9369-9382) Cell-free caspase-3/-7 activity and the extent of PARP cleavage was determined as described previously. (Kazi, A., Smith, D. M., Zhong, Q., and Dou, Q. P. (2002) Mol Pharmacol 62, 765-771) MTT (3-(4,5-dimethylthiazol-2-yl)-2,5-diphenyltetrazolium bromide) and TUNEL assays were performed according to Kazi et al., both of which are incorporated herein by reference. (Kazi, A., Lawrence, H., Guida, W. C., McLaughlin, M. L., Springett, G. M., Berndt, N., Yip, R. M. L., and Sebti, S. M. (2009) Cell Cycle 8, 1940-1951)
To determine whether BH3-M6 sensitizes cells to apoptosis induced by other stimuli, the inventors treated A549 cells with BH3-M6 and CEP-1612 (Sun, J., Nam, S., Lee, C. S., Li, B., Coppola, D., Hamilton, A. D., Dou, Q. P., and Sebti, S. M. (2001) Cancer Res 61, 1280-1284), either alone or in combination. BH3-M6 and CEP-1612 alone had little effect on cell viability (about 20% and about 28%, respectively) (FIG. 7A) and apoptosis (about 5% and about 8%, respectively) (FIG. 7B). […] The results from FIG. 7C were obtained after about 24 hours of drug treatment, whereas those from FIG. 5C were obtained after about 48 hours of drug treatment.

DU-145 cells = assay: PARP cleavage in DU-145 cells; settings: DU-145 (undetectable Bax), 24 h; tested form: diammonium salt (as drawn, CO2NH4)
Description: FIG. 6 is a series of images illustrating BH3-M6 induces apoptosis in a Bcl-2-, Bcl-XL-, and Mcl-1-dependent manner. BH3-M6 induces caspase-3/-7 activities and apoptosis in Bcl-XL/Bim, Bcl-2/Bim and Mcl-1/Bim overexpressing cells. MDA-MB-468 cells transfected with Bcl-XL-IRES-BimEL, Bcl-2-IRES-BimEL, and Mcl-1-IRES-BimEL were grown in 100-mm plates and treated with 0, 25, 50, or 100 μM BH3-M6 or 100 μM of TPC for 24 h at 37° C. Cells were then harvested and lysed using 0.2% NP-40 lysis buffer (without protease and phosphatase inhibitors for cell-free caspase assay and with protease and phosphatase inhibitors for Western blot analysis). (A) Caspase-3/-7 activity was determined by incubating whole-cell extracts with caspase-3/-7 substrate and measuring free AMCs (left panel), apoptosis was quantified by TUNEL assay (middle panel), gray: TPC, black: BH3-M6. BimEL, Bcl-XL, Bcl-2 and Mcl-1 expression levels were determined by Western blotting (right panel). (B) PARP cleavage by Western blotting. (C) Expression levels of different anti- and pro-apoptotic proteins in DU-145 and LNCaP cells as determined by Western blotting. (D) BH3-M6 induces apoptosis in LNCaP human prostate cancer cells expressing Bax, but not in DU-145 human prostate cancer cells lacking detectable Bax expression. LNCaP and DU-145 cells were treated with 0, 25 and 50 μM of BH3-M6 or 50 μM of TPC for 24 h. […]

CC(C)Cc1cc(-c2ccc(-c3ccc(CCC(=O)O)cc3CC(C)C)cc2Cc2ccccc2)ccc1OCC(=O)O
inhibition of cell viability (A549 cells; A549, MTT, 72 h): about 20%
induction of apoptosis (A549 cells; A549, TUNEL, 48 h): about 5%
PARP cleavage (A549 cells; A549, immunoblot, about 24 hours): but not either drug alone
PARP cleavage (DU-145 cells): but not in DU-145 cells

— patent publication US20130295185A1, “COMPOUNDS AND METHODS FOR INDUCING APOPTOSIS IN CANCER CELLS USING A BH3 ALPHA-HELICAL MIMETIC” (H. Lee Moffitt Cancer Center and Research Institute, Inc., priority 2011, published 2013)
